Measured values from US20180000778A1, “SMALL MOLECULE ANTAGONISTS OF DUSP5 AND METHODS OF USE” (THE MEDICAL COLLEGE OF WISCONSIN, INC., priority 2015, published 2018).

Target: T1, DUSP5 (PD)-WT (Homo sapiens, UniProt Q16690)
T1 construct: hexa-histidine (N); made in house; host or cells: E. coli BL21(DE3)
T1 sequence (Q16690 178-319): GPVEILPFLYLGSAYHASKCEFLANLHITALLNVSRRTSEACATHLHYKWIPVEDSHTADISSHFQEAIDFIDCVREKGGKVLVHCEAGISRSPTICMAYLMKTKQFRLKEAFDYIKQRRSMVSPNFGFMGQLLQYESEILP
Assay: Phosphatase inhibition profiles (Table 4), initial rates
Type: biochemical
Settings: read-out: IC50 DUSP5 (PD)-WT (mean ± SE)

Nc1cccc2c(O)cc(S(=O)(=O)O)cc12 [RR535]
IC50: > 1 mM
